Our source for the IC50 values is ChEMBL document CHEMBL1128265, “Three-dimensional quantitative structure-activity relationship (QSAR) of HIV integrase inhibitors: a comparative molecular field analysis (CoMFA) study” (J Med Chem, 1995).

The target in assay [1] is T1, Human immunodeficiency virus type 1 integrase (Human immunodeficiency virus 1, UniProt Q7ZJM1).
Assay [2] has as its target T1, Human immunodeficiency virus type 1 integrase. This is another data set of the same source.

For `O=c1cc(-c2ccccc2)oc2cc(O)c(O)c(O)c12` [BAICALEIN], the IC50 (usually the concentration at which inhibition is half-maximal) in assay [1] was determined as 4300 nM; in assay [2] it was 1200 nM.
